# ChEMBL document CHEMBL2424523, “2,3,9- and 2,3,11-trisubstituted tetrahydroprotoberberines as D2 dopaminergic ligands” (Eur J Med Chem, 2013)
# Species: Rattus norvegicus
# Assay: Selectivity ratio of Ki for dopamine D1 receptor in rat striatal membranes to Ki for dopamine D2 receptor in rat striatal membranes
# Assay type: cell membranes
# Conditions: Membrane
# In short: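 Ratio Ki(D1)/Ki(D2) from striatal membrane displacement assays: [3H]SCH 23390 at 0.25 nM (D1) and [3H]raclopride at 0.5 nM (D2), each incubated 1 h at 25 °C, with filtration and scintillation counting. Ki data are from 3-5 experiments.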
compound,measurement,value
Oc1cc2c(cc1O)C1Cc3cccc(O)c3CN1CC2 (stereo unspecified),Ratio Ki,40.6
